Test system: phenazocine (agonist effect in rat tail-flick)
Test: Tail-flick antagonist test against phenazocine
Settings: both subcutaneously and orally

SMILES: CC(C)=CCN1CCC2(C)c3cc(O)ccc3CC1C2C (stereo not shown) [pentazocine, reference compound]
- Potency relative to the compound of Example 1B in the tail-flick antagonist test against phenazocine: significantly less potent

From patent US4205171A, “Aminomethanobenzazocines and nitromethanobenzazocines” (Sterling Drug Inc., priority 1978, dated 1980)
